Literature values, collected in patent US8206983B2, “In vitro methods for the induction and maintenance of plant cell lines as single suspension cells with intact cell walls” (Dow AgroSciences, LLC., priority 2006, dated 2012).

Tested on: soybean suspension cells
Conditions: cited from earlier work

Compound: COc1cc2c(c(OC)c1OC)-c1ccc(OC)c(=O)cc1[C@@H](NC(C)=O)CC2 [Colchicine]
- concentration for the production of chromosomal polyploidy: 5000 to 20000 µM
